Values of other authors, collected in paper PMC2885539 (Archives of biochemistry and biophysics, 2010).

Settings: ions, ref [16]; cited from earlier work

SO4^2−
effect of static compression on diffusivity: reduced the diffusivities
